Data taken from patent publication US8198311B2, “Modulators of glucocorticoid receptor, AP-1, and/or NF-κB activity and use thereof” (Bristol-Myers Squibb Company, priority 2006, dated 2012).

Protein sequences, listed by entry. Tags and fused reporters are not part of them.
UniProt P04150, whole entry: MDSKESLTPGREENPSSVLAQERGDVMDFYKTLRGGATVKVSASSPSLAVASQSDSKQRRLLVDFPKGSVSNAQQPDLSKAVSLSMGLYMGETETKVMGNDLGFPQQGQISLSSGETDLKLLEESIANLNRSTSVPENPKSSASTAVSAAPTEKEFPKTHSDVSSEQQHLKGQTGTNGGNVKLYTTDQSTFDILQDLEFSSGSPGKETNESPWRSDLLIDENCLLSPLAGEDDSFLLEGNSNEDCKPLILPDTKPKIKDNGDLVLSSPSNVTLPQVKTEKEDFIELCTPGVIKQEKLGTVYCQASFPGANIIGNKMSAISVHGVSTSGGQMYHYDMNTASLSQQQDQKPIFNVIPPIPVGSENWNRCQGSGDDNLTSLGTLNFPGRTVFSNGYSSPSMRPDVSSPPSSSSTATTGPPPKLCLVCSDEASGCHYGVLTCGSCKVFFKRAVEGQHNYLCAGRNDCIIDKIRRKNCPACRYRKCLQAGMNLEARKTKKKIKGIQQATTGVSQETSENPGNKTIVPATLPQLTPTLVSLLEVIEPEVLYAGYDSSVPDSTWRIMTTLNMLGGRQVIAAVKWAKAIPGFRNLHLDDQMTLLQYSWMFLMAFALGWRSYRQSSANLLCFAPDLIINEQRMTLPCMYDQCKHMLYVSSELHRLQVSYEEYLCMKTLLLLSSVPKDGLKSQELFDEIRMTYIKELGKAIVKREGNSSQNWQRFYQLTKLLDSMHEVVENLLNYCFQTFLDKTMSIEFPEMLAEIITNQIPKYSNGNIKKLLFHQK

Experiments:
[1] = molecular target: human glucocorticoid receptor (Homo sapiens, UniProt P04150); test: Glucocorticoid Receptor Binding Assay (I), fluorescence polarization competitor kit (Fluormone GS Red); conditions: read-out: GR (Ki, nM) (GR Binding Assay (I)), purified human recombinant full-length GR
[2] = system: AP-1 induced transcriptional activity; test: Cellular Transrepressional Assay (AP-1 luciferase reporter in A549 cells, PMA-activated); conditions: read-out: AP-1 (EC50, nM) (Cellular Transrepression Assay), pAP-1-Luc, 10 ng/ml PMA, 7 hours
Procedure: To measure the ability of test molecules to inhibit AP-1 induced transcriptional activity an A549 cell was utilized which was stably transfected with a plasmid containing 7×AP-1 DNA binding sites (pAP-1-Luc plasmid, Stratagene Co. La Jolla, Calif.) followed by the gene for luciferase. Cells were activated with 10 ng/ml of phorbol myristic acid (PMA) plus or minus test molecules for 7 hours. After 7 hours a luciferase reagent was added to measure luciferase enzymatic activity in the cell. After a 10 minute incubation of luciferase reagent with cells, luminescence was measured in a TopCount luminescence counter. Repression of AP-1 activity was calculated as the percentage decrease in the signal induced by PMA alone. Test molecules were analyzed in the concentration range from 0.1 nM to 40 μM. EC50s were determined by using standard curve fitting methods such as Excel fit (Microsoft Co.). An EC50 is the test molecule concentration at which there is a 50% repression of the maximal inhibition of transcription, i.e. a 50% reduction of AP-1 activity. In the absence of an EC50 the maximum % inhibition recorded is the inhibition of AP-1 at a compound concentration of 10 micromolar.

| Ki [1] [nM] | EC50 [2] [nM] | Structure (SMILES) |
| --- | --- | --- |
| 1.8 | 171 | CC[C@@H](C)NC(=O)NCC(C)(C)C(CC(C)C)c1ccc2c(cnn2-c2ccc(F)cc2)c1 (stereo partly shown) |
| 2.7 | 78 | CC[C@H](C)NC(=O)NCC(C)(C)C(CC(C)C)c1ccc2c(cnn2-c2ccc(F)cc2)c1 (stereo partly shown) |
